Measured values from US12570697B2, “Cyclic peptide useful in the treatment of cancer” (Syntherix Limited, priority 2019, dated 2026).

System: NCI-H460 cells
Assay: viability assay of CLIP cyclised peptides on NCI-H460 cells (Example 3, Table 2)
Conditions: with and without Nanocin-PRO

Question: Which “cytotoxic activity against NCIH460 cells (in words)” value does the source give for “Ac-C[Dac]R[Sar][dmPro]R[Nap]C-NH2 [HILRa-CL-15]” here?
Answer: showed activity
